# From patent US9925170B2, “Methods of adipolysis and compositions useful therein” (priority 2015, dated 2018)
# Test system: Human mature adipocytes
# Assay: Effect of statins on human mature adipocytes, cell viability by ALAMARBLUE assay
smiles,measurement,setting,value
CC[C@H](C)C(=O)O[C@H]1C[C@@H](C)C=C2C=C[C@H](C)[C@H](CC[C@@H]3C[C@@H](O)CC(=O)O3)[C@H]21 [lovastatin],dose dependence of cytotoxic effect,"range of concentrations, 7 days (FIG. 3-5)",dose-dependent cytotoxic effect
same,relative cytotoxicity of statins,statin treatment at 10 μM (FIG. 2),more cytotoxic than rosuvastatin and atorvastatin
